Structures are written as SMILES. Some results are limits rather than exact numbers.

Protein sequences, listed by entry. Tags and fused reporters are not part of them. Residues count along the entry.
UniProt P49862, 30-253 limits assumed: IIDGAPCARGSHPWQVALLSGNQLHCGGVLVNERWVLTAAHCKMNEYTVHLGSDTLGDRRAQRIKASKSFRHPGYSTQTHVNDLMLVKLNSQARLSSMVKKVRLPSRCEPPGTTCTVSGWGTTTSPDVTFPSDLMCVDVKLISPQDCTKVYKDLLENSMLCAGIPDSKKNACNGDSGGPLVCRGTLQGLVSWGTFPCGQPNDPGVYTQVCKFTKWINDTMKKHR

The target in the experiment is human kallikrein 7 (hKallikrein7) (Homo sapiens, UniProt P49862). Briefly: Kallikrein 7 fluorescence-quenched substrate enzymatic assay (IC50). Particulars: read-out: IC50 human kallikrein 7. The protocol: An “inhibitor” is a cyclic depsipeptide that inhibits an enzymatic reaction with a measure IC50 of less than […], for instance 50 μM, 30 μM, 20 μM or 10 μM. Particularly preferred are cyclic depsipeptides with an IC50 of less than 30 μM for human kallikrein 7, for instance cyclic depsipeptides with an IC50 of less than 10 μM, 1 μM, 100 nM, 50 nM, 40 nM, 30 nM, 20 nM, 10 nM, or less. IC50 for human kallikrein can be measured using the fluorescence-quenched substrate Ac-Glu-Asp(EDANS)-Lys-Pro-lle-Leu-Phe^Arg-Leu-Gly-Lys(DABCYL)-Glu-NH2 (SEQ ID NO 1) (where ^ indicates the scissile bond, identified by MS analysis) which can be purchased from Biosyntan (Berlin, Germany). Enzymatic reactions are conducted in 50 mM sodium citrate buffer at pH 5.6 containing 150 mM NaCl and 0.05% (w/v) CHAPS. […]
The fluorescence-quenched substrate Ac-Glu-Asp(EDANS)-Lys-Pro-lle-Leu-Phe^Arg-Leu-Gly-Lys(DABCYL)-Glu-NH2 (SEQ ID NO1) (where ^ indicates the scissile bond, identified by MS analysis) is purchased from Biosyntan (Berlin, Germany) and kept as a 5 mM stock solution in DMSO at −20° C. […]
For fluorescence intensity (FI) measurements an Ultra Evolution reader (TECAN, Maennedorf, Switzerland) is used. The instrument is equipped with a combination of a 350 nm (20 nm bandwidth) and a 500 nm (25 nm bandwidth) bandpath filter for fluorescence excitation and emission acquisition, respectively. […]

For `CC(C)CC(=O)N[C@@H](CCC(N)=O)C(=O)N[C@@H]1C(=O)N[C@@H](CC(C)C)C(=O)NC2CC[C@H](O)N(C2=O)[C@@H](Cc2ccccc2)C(=O)N(C)[C@@H](Cc2ccc(O)cc2)C(=O)N[C@@H](C(C)C)C(=O)O[C@@H]1C` (stereo partly shown), the IC50 (in general, the concentration that inhibits the measured activity by half) was less than 3 nM.

Source of the values: patent US8415305B2, “Use of cyclic depsipeptides to inhibit kallikrein 7” (Novartis AG, priority 2007, dated 2013).
